Results taken from ChEMBL document CHEMBL5506056, “Discovery of Novel Azaindoles as Potent and Selective PI3Kδ Inhibitors for Treatment of Multiple Sclerosis” (J Med Chem, 2024).
The source made the active and inactive calls. The calls are words filed in the database; no cut-off is given here.

Tests used:
Assay type in all cases: cell-based
Details in all cases: CD3-positive T cell
[1] = biological target: T1, Phosphatidylinositol 4,5-bisphosphate 3-kinase catalytic subunit delta isoform (Mus musculus) (UniProt O35904); test: Inhibition of PI3Kdelta in mouse CD3-positive T cells assessed as decrease in AKT phosphorylation at Ser473 at 3 uM by Western blot analysis
T1 sequence (whole entry): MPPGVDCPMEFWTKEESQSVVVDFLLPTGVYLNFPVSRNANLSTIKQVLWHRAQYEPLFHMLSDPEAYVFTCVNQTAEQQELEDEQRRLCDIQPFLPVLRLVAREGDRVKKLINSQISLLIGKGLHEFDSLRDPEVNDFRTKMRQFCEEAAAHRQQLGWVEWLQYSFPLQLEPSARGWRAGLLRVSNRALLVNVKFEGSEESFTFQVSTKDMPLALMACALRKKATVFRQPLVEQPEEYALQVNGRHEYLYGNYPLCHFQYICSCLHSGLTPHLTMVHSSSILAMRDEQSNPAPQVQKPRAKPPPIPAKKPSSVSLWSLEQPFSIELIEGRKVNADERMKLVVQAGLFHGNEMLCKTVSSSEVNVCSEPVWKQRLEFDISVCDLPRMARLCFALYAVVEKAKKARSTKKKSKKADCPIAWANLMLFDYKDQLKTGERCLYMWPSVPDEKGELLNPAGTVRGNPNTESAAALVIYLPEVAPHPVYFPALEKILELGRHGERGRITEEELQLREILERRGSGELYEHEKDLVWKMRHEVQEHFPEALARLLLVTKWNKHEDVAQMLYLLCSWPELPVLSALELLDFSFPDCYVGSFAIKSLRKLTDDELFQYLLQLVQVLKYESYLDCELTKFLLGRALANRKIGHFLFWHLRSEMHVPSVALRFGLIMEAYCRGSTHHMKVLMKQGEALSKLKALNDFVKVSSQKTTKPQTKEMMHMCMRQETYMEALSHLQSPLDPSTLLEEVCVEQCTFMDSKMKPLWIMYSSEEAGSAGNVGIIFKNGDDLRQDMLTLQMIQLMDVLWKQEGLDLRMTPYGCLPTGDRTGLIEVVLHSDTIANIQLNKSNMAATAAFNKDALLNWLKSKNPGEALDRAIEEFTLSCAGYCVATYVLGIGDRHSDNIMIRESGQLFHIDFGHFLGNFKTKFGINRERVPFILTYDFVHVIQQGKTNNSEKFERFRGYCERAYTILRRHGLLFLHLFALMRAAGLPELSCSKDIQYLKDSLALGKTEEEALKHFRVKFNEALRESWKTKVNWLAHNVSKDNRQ

[2] = biological target: T1, Phosphatidylinositol 4,5-bisphosphate 3-kinase catalytic subunit delta isoform (Mus musculus); test: Inhibition of PI3Kdelta in mouse CD3-positive T cells assessed as decrease in mTOR phosphorylation at Ser2448 at 3 uM by Western blot analysis
[3] = biological target: T1, Phosphatidylinositol 4,5-bisphosphate 3-kinase catalytic subunit delta isoform (Mus musculus); test: Inhibition of PI3Kdelta in mouse CD3-positive T cells assessed as decrease in S6 phosphorylation at Ser235/236 at 3 uM by Western blot analysis

inhibition [1]: Active
inhibition [2]: Active
inhibition [3]: Active
Compound: C[C@H](Nc1nc(N)nc(N)c1C#N)c1cn(-c2cccnc2)c2cc(Cl)cnc12
